Results taken from ChEMBL document CHEMBL2406907, “Chiral Effect of a Phe Residue in Position 3 of the Dmt(1)-L(or D)-Tic(2) Analogues on Opioid Functional Activities” (2013).

Protein sequences, listed by entry. Tags and fused reporters are not part of them.
UniProt P41143, whole entry, looked up: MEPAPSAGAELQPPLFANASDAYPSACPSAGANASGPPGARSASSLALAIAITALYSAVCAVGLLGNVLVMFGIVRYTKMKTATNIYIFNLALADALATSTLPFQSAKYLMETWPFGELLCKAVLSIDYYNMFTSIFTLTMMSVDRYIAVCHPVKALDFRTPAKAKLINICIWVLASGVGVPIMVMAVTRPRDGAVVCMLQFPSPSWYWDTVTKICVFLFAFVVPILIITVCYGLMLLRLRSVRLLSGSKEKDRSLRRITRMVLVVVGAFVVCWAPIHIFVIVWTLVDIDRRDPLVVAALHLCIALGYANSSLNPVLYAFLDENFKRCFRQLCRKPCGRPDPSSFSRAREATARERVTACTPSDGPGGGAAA
UniProt P32300, whole entry, looked up: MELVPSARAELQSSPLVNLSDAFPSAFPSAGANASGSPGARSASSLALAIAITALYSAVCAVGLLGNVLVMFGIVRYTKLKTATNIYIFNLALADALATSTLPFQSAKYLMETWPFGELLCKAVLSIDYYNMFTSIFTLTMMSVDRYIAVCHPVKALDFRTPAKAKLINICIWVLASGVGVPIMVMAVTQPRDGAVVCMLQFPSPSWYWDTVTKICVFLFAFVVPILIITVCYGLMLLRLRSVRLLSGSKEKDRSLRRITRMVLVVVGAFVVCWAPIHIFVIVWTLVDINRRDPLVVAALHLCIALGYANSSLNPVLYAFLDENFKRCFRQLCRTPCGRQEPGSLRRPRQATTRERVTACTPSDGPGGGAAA
UniProt P33535, whole entry, looked up: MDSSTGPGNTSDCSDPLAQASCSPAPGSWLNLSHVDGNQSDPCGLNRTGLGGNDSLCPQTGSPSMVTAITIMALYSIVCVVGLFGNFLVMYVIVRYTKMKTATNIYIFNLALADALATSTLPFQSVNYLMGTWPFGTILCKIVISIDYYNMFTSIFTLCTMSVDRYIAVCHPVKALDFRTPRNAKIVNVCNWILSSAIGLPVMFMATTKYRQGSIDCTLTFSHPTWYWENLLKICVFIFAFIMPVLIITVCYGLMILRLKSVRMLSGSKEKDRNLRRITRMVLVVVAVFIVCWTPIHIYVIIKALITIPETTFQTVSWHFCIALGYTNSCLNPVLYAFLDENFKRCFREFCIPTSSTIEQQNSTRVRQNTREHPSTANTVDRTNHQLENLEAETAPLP

Legend:
[1] = biological target: Delta-type opioid receptor (Homo sapiens, UniProt P41143); assay: Displacement of [3H]DPDPE from human delta opioid receptor expressed in human/mouse HN9.10 cell membranes after 3 hrs by liquid scintillation counting analysis
[2] = biological target: T1, Delta-type opioid receptor (Mus musculus, UniProt P32300); assay: Agonist activity at delta opioid receptor in ICR mouse vas deferens assessed as inhibition of electrically-stimulated muscle contraction; conditions: strain ICR
Mu-type opioid receptor = Mu-type opioid receptor (Rattus norvegicus, UniProt P33535); assay: Displacement of [3H]DAMGO from rat mu opioid receptor expressed in human/mouse HN9.10 cell membranes after 3 hrs by liquid scintillation counting analysis
[3] = biological target: T1, Delta-type opioid receptor; assay: Antagonist activity at delta opioid receptor in ICR mouse vas deferens; conditions: strain ICR

Compound `Cc1cc(O)cc(C)c1C[C@H](N)C(=O)N1Cc2ccccc2C[C@@H]1C(N)=O` has a Ki [1] of 57 nM.
With `Cc1cc(O)cc(C)c1C[C@H](N)C(=O)N1Cc2ccccc2C[C@@H]1C(=O)N[C@H](Cc1ccc(Cl)cc1)C(=O)N1CCC(Cn2cncn2)(C2CCCCC2)CC1` the Ki [1] was 250 nM, the pIC50 [1] was 6.28 and the IC50 [2] was 810 nM. The Ki (Mu-type opioid receptor) was 6.4 nM and the pIC50 (Mu-type opioid receptor) was 7.87.
`Cc1cc(O)cc(C)c1C[C@H](N)C(=O)N1Cc2ccccc2C[C@H]1C(N)=O` gave a Ki [1] of 1.2 nM.
`Cc1cc(O)cc(C)c1C[C@H](N)C(=O)N1Cc2ccccc2C[C@@H]1C(=O)NCC(=O)N[C@@H](Cc1ccc(Cl)cc1)C(=O)O` showed an IC50 [2] of 0.21 nM and an IC50 [3] of 170 nM.
